In the series the test system is patients suffering from Crohn's disease. The series can be described thus: Clinical course, response and tolerability in Crohn's disease patient case reports. The format is in vivo, human. The settings on record: Example 2; after three months on mesalazine. From the text:
Several patients suffering from Crohn's disease for at least 5 years without sufficient response to standard treatment were given rebamipide tablets three times a day. […] The severity of the disease was quantified by the CDAI, and the level of inflammation by fecal calprotectin.

This is an account of results in patent US20220304998A1, “REBAMIPIDE FOR USE IN PREVENTION AND TREATMENT OF CROHN'S DISEASE” (SQUARE POWER LTD., priority 2019, published 2022).

For `Nc1ccc(O)c(C(=O)O)c1` [mesalazine, 5-aminosalicylic acid], the adverse reaction result is “pancreatitis”.
